# Measured values as given in the Kinase Knowledgebase extract (Sharma et al. 2016).
# Amino acid sequences for entries named in this document (tags omitted).
# UniProt P00533, whole entry, looked up: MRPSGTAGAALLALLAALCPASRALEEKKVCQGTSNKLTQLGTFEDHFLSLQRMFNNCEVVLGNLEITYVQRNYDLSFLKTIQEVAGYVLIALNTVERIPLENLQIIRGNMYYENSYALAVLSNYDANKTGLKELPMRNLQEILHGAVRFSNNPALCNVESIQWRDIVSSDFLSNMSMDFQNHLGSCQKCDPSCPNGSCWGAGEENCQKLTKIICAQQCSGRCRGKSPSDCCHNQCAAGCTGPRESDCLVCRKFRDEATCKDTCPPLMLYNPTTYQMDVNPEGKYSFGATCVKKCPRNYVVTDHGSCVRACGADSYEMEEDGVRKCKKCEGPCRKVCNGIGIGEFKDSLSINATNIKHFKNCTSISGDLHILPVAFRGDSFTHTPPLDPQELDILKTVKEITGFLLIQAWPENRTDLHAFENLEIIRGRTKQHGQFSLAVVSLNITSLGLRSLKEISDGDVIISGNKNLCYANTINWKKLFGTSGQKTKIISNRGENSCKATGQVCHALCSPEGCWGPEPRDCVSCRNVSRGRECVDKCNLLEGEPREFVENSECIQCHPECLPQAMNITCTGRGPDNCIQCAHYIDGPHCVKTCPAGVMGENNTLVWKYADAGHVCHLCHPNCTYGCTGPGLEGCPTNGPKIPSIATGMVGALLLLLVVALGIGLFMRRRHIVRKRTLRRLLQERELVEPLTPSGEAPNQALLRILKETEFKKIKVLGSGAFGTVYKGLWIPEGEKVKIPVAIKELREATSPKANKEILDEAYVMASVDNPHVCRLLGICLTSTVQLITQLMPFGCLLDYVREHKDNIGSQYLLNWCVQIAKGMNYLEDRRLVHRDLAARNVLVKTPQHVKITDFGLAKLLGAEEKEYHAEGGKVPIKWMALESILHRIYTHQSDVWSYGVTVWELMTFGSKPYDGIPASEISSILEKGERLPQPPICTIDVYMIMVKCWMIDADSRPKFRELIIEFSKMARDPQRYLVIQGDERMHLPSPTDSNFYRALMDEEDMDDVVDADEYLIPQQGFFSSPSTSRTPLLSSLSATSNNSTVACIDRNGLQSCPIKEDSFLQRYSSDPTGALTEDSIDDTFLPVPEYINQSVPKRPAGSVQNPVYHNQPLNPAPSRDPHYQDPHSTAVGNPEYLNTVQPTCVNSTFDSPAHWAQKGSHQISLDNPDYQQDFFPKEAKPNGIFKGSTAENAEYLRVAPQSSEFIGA
# Target: EGFR (human) (UniProt P00533)
# Details: bt474
row,SMILES,IC50 [nM]
1,COCC1CCN1C/C=C/C(=O)Nc1cc2c(Nc3ccc(F)c(Cl)c3)ncnc2cc1OC[C@@H]1COCCO1 (stereo partly specified),4.8
2,COC[C@H]1CCN1C/C=C/C(=O)Nc1cc2c(Nc3ccc(F)c(Cl)c3)ncnc2cc1OC[C@H]1COCCO1,2.9
3,CCOc1cc2ncnc(Nc3ccc(F)c(Cl)c3)c2cc1NC(=O)/C=C/CN1CC[C@H]1COC,7.8
4,COC[C@H]1CCN1C/C=C/C(=O)Nc1cc2c(Nc3ccc(F)c(Cl)c3)ncnc2cc1OC[C@H]1[C@@H]2COC[C@@H]21,2.9
5,COC[C@@H]1CCN1C/C=C/C(=O)Nc1cc2c(Nc3ccc(F)c(Cl)c3)ncnc2cc1OC[C@H]1COCCO1,25
6,COC[C@@H]1CCN1C/C=C/C(=O)Nc1cc2c(Nc3ccc(F)c(Cl)c3)ncnc2cc1OC[C@H]1[C@@H]2COC[C@@H]21,22.2
